The values that follow come from patent US12427210B2, “Compounds comprising a fibroblast activation protein ligand and use thereof” (priority 2019, dated 2025).

For assay [1], the target named is T1, A20 (Homo sapiens (Human)) (UniProt P21580).
T1 sequence: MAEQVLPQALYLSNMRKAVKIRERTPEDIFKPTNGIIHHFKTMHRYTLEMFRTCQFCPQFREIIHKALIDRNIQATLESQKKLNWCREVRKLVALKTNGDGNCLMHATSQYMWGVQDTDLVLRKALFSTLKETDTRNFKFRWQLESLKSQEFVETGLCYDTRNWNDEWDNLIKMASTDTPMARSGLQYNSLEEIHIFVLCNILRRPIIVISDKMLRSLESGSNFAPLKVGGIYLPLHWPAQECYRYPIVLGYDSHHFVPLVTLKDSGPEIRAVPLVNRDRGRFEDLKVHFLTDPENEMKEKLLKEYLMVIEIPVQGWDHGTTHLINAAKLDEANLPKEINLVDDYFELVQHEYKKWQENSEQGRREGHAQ

In assay [2] the target is T2, Deubiquitinase OTUD6B (Homo sapiens (Human)) (UniProt Q8N6M0).
T2 sequence: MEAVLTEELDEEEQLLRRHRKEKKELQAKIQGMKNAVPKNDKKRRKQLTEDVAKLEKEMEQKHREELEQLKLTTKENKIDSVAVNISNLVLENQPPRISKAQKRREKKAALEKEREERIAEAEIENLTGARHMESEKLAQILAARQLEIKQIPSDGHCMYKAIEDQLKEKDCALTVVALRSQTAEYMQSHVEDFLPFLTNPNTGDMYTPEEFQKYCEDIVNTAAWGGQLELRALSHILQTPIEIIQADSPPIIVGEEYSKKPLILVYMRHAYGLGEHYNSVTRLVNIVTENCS

In assay [3] the target is T3, Ubiquitin carboxy-terminal hydrolase L3 (Homo sapiens (Human)) (UniProt P15374).
T3 sequence: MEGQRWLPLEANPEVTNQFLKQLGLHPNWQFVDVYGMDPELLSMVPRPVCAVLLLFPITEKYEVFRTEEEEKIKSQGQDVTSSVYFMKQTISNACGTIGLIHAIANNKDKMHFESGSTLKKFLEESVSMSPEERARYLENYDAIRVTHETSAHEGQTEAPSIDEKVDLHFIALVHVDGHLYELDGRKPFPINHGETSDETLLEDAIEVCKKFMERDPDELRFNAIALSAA

Assay [4] has as its target Ubiquitin carboxyl-terminal hydrolase 10 (Homo sapiens (Human)) (UniProt Q14694).
Assay [5] addresses Ubiquitin carboxyl-terminal hydrolase 14 (Homo sapiens (Human)) (UniProt P54578).
Assay [6] concerns the target T4, Ubiquitin carboxyl-terminal hydrolase 2 (Homo sapiens (Human)) (UniProt O75604).
T4 sequence: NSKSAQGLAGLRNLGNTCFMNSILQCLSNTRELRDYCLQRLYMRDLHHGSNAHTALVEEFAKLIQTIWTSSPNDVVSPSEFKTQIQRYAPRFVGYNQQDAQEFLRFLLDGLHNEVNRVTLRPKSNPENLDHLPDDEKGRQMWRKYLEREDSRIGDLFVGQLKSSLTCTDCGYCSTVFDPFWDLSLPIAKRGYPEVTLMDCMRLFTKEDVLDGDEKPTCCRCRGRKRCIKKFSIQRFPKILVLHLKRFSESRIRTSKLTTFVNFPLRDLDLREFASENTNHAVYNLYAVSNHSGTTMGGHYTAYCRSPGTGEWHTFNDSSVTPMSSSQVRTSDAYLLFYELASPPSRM

Assay [7] deals with T5, Ubiquitin carboxyl-terminal hydrolase 5 (Homo sapiens (Human)) (UniProt P45974).
T5 sequence: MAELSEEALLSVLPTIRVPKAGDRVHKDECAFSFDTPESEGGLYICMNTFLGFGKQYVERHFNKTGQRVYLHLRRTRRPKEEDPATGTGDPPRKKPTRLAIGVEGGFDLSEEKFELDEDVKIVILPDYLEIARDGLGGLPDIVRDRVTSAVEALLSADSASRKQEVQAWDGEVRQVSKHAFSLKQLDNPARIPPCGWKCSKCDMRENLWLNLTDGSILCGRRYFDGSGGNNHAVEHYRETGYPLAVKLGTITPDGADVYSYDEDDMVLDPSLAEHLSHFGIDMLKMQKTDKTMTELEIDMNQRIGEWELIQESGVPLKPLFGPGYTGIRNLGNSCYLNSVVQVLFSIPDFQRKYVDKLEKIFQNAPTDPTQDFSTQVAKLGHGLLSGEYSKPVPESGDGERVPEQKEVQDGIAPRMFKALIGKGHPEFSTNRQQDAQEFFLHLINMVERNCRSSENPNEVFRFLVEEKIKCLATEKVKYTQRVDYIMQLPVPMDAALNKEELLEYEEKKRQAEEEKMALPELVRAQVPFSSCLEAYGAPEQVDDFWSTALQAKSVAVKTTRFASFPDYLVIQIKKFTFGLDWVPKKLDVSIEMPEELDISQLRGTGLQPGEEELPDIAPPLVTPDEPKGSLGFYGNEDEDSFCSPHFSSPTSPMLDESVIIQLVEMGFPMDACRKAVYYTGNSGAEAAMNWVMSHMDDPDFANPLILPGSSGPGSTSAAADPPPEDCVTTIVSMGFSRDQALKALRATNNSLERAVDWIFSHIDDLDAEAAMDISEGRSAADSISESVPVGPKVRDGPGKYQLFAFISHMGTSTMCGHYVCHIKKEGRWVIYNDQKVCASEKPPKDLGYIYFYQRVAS

The target of assay [8] is Ubiquitin carboxyl-terminal hydrolase 7 (Homo sapiens (Human)) (UniProt Q93009).
In assay [9] the target is Ubiquitin carboxyl-terminal hydrolase 8 (Homo sapiens (Human)) (UniProt P40818).

As for Ub-Aldehyde (from UniProt P0CG48), the Percentage inhibition (%), Reference (% inhibition at 1 µM) amounted to 99 in assay [1]; 97 in assay [2]; 82 in assay [4]; 91 in assay [6]; 84 in [7]; 95 in assay [8]. The substance also yielded a Percentage inhibition (%), Reference (% inhibition at 1 µM) in [9] of 73. The Percentage inhibition (%), Reference (% inhibition at 10 nM) in [3] came to 95. The substance further yielded a Percentage inhibition (%), Reference (% inhibition at 100 nM) in assay [5] of 96.
